Values of other authors in US6627664B2, “Perylenequinones for use as sonosensitizers” (Altachem Pharma Ltd., priority 2001, dated 2003).

Test system: cell lines
Conditions: tone-burst and pulsed ultrasound; cited from earlier work

## COc1cccc2c1C(=O)c1c(O)c3c(c(O)c1C2=O)C[C@@](O)(C(=O)CO)C[C@@H]3O[C@H]1C[C@H](N)[C@H](O)[C@H](C)O1 [doxorubicin]
  effect in combination with ultrasound on cytotoxicity: synergistic effects
